Yeast UUG start: alters start codon recognition fidelity in yeast. 350,000 tested, 0.13% active. activity score, % at 18.7 µM. S. cerevisiae UUG-firefly luciferase reporter, luminescence/redox ratio;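 active = replicate mean at a twofold rise or more, about +100% in these data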;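 also: firefly luciferase made from a UUG start codon reports start codon fidelity; reporter light over untreated wells divided by growth signal over untreated wells; some hits fall short of that in this replicate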
C2C12 statin: suppressors of simvastatin-induced myotoxicity in C2C12 myotubes; rescue of ATP level, % at 7.49 µM; hit rate 0.78% among 330,000; ATP luminescence, 48 h; scaled: DMSO 0, geranylgeraniol control 100;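 active means mean ATP rescue above about 67%, or every replicate alone reaching that limit, limit read from the data, passing the limit was not always enough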;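 further: myotubes were challenged with 10 µM simvastatin during compound exposure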
E-sel inducer: E-selectin induction on HUVECs | P16581 | HUVEC E-selectin immunofluorescence imaging; normalized: neutral wells 0, TNF-alpha wells 100 | activation, % at 7.58 µM | hit rate 0.37% among 260,000 | AID 686992;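 active means mean E-selectin-positive cell signal at least 10% of the positive control, reached in at least 60% of replicates, without over 20% cell loss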
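System: HUVEC, human umbilical vein endothelial cells; quantity: 3,000 cells/well; buffer or medium: EGM-2 medium, gelatin-coated wells; dosing: single-point compound dose; detection: immunofluorescence imaging; evaluation: % PE-positive cells; benchmarks: TNF-alpha, DMSO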
PglD DTNB: inhibitors of Campylobacter jejuni PglD acetyltransferase; purified PglD enzyme, DTNB colorimetric CoA detection; inhibition, % at 12.5 µM; hit rate 0.098% among 360,000; AID 602405; in the data active means inhibition above about 16%, passing the limit was not always enough
PGC1a acetyl inh: lowers PGC1a acetylation signal in U2OS cells. AlphaScreen anti-acetyl-lysine; with virally co-expressed GCN5 acetyltransferase. inhibition, % at 15.6 µM. hit rate 0.17% among 350,000. AID 651687;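 active means every replicate shows inhibition of at least 40%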;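 further: 0% = neutral control wells and 100% = positive control wells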
esBAF inh: blocks esBAF chromatin remodeling in mouse ES cells; Bmi1-luciferase knock-in reporter, 24 h; 100% = twice the neutral-well signal; reporter increase, % at 12.5 µM; hit rate 2% among 350,000; AID 602393; in the data active means activation above about 40%;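 further: 0% = median of the plate's neutral control wells and 100% = double that signal; a rise in the Bmi1 reporter signal indicates esBAF inhibition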
Ring1 derepress: confirmation of esBAF inhibitors: Ring1 de-repression in mouse ESCs; 550 tested, under 10 active; mouse ESC E14, Ring1 mRNA RT-qPCR fold change; shares compounds with esBAF inh; fold change at 33 µM; AID 743176;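 active means Ring1 gene expression raised more than 2-fold over untreated cells in both replicates at either tested dose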;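 further: Ring1 transcript normalised to actin housekeeping signal by TaqMan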
esBAF Fgf4 qPCR: confirmation of esBAF inhibitors: Fgf4 repression in mouse ESCs | AID 743177 | Fgf4 expression fold change at 33 µM | shares compounds with esBAF inh | hit rate 4% among 550 | mouse ESC E14, Fgf4 mRNA qPCR fold change; hits give low values;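 active means Fgf4 expression under 0.8 fold of control in both repeat measurements at one or both tested doses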;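 further: Fgf4 transcript normalised to actin in duplex TaqMan qPCR; cells exposed to compound for 24 h before lysis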
Bmi1 derepress: confirmation of esBAF inhibitors: Bmi1 de-repression in mouse ESCs; shares compounds with esBAF inh; mouse ESE14 ES cells, Bmi1 mRNA qPCR fold; hits give high values; fold change at 33 µM; 550 tested, under 10 active;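 active means Bmi1 expression fold change above 6 at either tested concentration, seen in replicate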;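 further: higher fold means more Bmi1 de-repression and stronger esBAF inhibition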
A549 cytotox: cytotoxicity in A549 cells | shares compounds with esBAF inh | plate reader | cell viability change % (negative = cytotoxic), % at 25 µM, hits read low | 550 tested, under 10 active; call rule not given here
HepG2 tox SP: HepG2 cell cytotoxicity at single point. hit rate 4% among 550. activity change, negative = inhibition, % at 25 µM. shares compounds with esBAF inh. AID 743189. plate reader; hits give low values; in the data active means activity change below about -50%
HEK293 cytotox SP: cytotoxicity in HEK293 cells | activity change, negative = inhibition, % at 25 µM, hits read low | shares compounds with esBAF inh | hit rate 3% among 550 | plate reader; in the data active means activity change below about -38%, passing the limit was not always enough
* marks the source's active call; other numbers are inactive results. Rows were chosen to be rich in hits. Some 2.8% of all compounds tested hit in one or more screens of this group.

`COc1ccc2c(=O)c(-c3ccc(OC)c(OC)c3)coc2c1` gave Yeast UUG start -21, C2C12 statin 3, PglD DTNB -1, PGC1a acetyl inh 2, esBAF inh 58*, Ring1 derepress 1, esBAF Fgf4 qPCR 0.89, Bmi1 derepress 1.5, A549 cytotox -4, HepG2 tox SP -60* and HEK293 cytotox SP -14.
`COc1ccc2c(=O)c3ccccc3oc2c1` gave Yeast UUG start -6, C2C12 statin 8, PglD DTNB 2, PGC1a acetyl inh -4, esBAF inh 58*, Ring1 derepress 1.4, esBAF Fgf4 qPCR 1, Bmi1 derepress 1.7, A549 cytotox -11, HepG2 tox SP -4 and HEK293 cytotox SP -16.
For COc1ccc2c(=O)c(N3C(=O)c4ccccc4C3=O)c(C)oc2c1 the results were Yeast UUG start -20, C2C12 statin 22, PglD DTNB 1, PGC1a acetyl inh 11 and esBAF inh 2.
`Fc1cccc(-c2ncc(-c3ccccc3)o2)c1` gave Yeast UUG start -12, C2C12 statin -3, PglD DTNB 1, esBAF inh 73*, Ring1 derepress 1.2, esBAF Fgf4 qPCR 0.99, Bmi1 derepress 1.7, A549 cytotox -6, HepG2 tox SP 2 and HEK293 cytotox SP -17.
`C[C@H]1CN([C@@H](C)CO)C(=O)c2cc(NS(=O)(=O)c3ccc(Cl)cc3)ccc2O[C@H]1CN(C)C` gave Yeast UUG start 6, C2C12 statin 1, PglD DTNB -6, PGC1a acetyl inh -2 and esBAF inh -7.
`COc1cc(/C=C/c2ccccc2)cc(OC)c1` gave Yeast UUG start -19, C2C12 statin 0, E-sel inducer 1, PglD DTNB -2, PGC1a acetyl inh -7, esBAF inh 68*, Ring1 derepress 0.89, esBAF Fgf4 qPCR 0.99, Bmi1 derepress 1.3, A549 cytotox -12, HepG2 tox SP -19 and HEK293 cytotox SP -11.
For COc1cc(C=C2C(=O)c3ccccc3C2=O)cc(OC)c1 the results were PGC1a acetyl inh -8.
COc1ccc(S(=O)(=O)Nc2ccc3c(c2)C(=O)N([C@H](C)CO)C[C@@H](C)[C@H](CN(C)CC2CC2)OCCCC[C@@H](C)O3)cc1 was read as E-sel inducer 1 and PGC1a acetyl inh -6.
C[C@@H]1CN([C@@H](C)CO)C(=O)c2cccc(NS(=O)(=O)c3cn(C)cn3)c2O[C@@H]1CN(C)CC1CC1 was read as Yeast UUG start -8, C2C12 statin 7, E-sel inducer 0, PglD DTNB 4, PGC1a acetyl inh -1 and esBAF inh -3.
Screening Cc1cccc(-c2noc(CCC(=O)N3CCN(c4cc(C)ccc4C)CC3)n2)c1 returned Yeast UUG start -1, C2C12 statin -7, E-sel inducer -6, PglD DTNB 0, PGC1a acetyl inh 5, esBAF inh 63*, Ring1 derepress 1, esBAF Fgf4 qPCR 0.9, Bmi1 derepress 1.4, A549 cytotox 5, HepG2 tox SP 13 and HEK293 cytotox SP -7.
For CC(C)NC(=O)c1c(O)c2ccccc2[nH]c1=O the results were Yeast UUG start 3, C2C12 statin -3, PglD DTNB -7, PGC1a acetyl inh -97 and esBAF inh 23.
For O=C(Nc1cccc(F)c1)c1c(O)c2ccccc2[nH]c1=O the results were Yeast UUG start -1, C2C12 statin 2, PglD DTNB 9, esBAF inh 80*, Ring1 derepress 0.99, esBAF Fgf4 qPCR 0.95, Bmi1 derepress 1.3, A549 cytotox 6, HepG2 tox SP -17 and HEK293 cytotox SP -9.
CC=Cc1ccc2n(c1=O)C[C@@H]1[C@@H](CO)[C@H](C(=O)NCCc3ccccc3)N(C(=O)CC)[C@H]21 (mixture of isomers) was read as C2C12 statin 9, E-sel inducer 0, PglD DTNB 4 and esBAF inh -3.
COc1ccccc1NC(=O)Cn1nnc(-c2ccccc2NC(=O)c2cc3ccccc3oc2=O)n1 was read as Yeast UUG start -13, C2C12 statin 15, PglD DTNB 5, PGC1a acetyl inh -6, esBAF inh 66*, Ring1 derepress 1.1, esBAF Fgf4 qPCR 0.87, Bmi1 derepress 1.5, A549 cytotox -7, HepG2 tox SP -3 and HEK293 cytotox SP -13.
Screening CN(C)C(=O)[C@@H]1[C@@H](CO)[C@@H]2Cn3c(ccc(-c4ccccc4)c3=O)[C@H]1N2C(=O)C1CC1 returned Yeast UUG start 10, C2C12 statin 10, E-sel inducer 0, PglD DTNB 1 and esBAF inh -4.
Screening COc1ccc(S(=O)(=O)Nc2cc(C(=O)NC3CCCCCC3)ccc2N2CCOCC2)cc1 returned Yeast UUG start -20, C2C12 statin -12, PglD DTNB -4, PGC1a acetyl inh 1, esBAF inh 38, Ring1 derepress 1.1, esBAF Fgf4 qPCR 1, Bmi1 derepress 1.9, A549 cytotox 4, HepG2 tox SP -46 and HEK293 cytotox SP -5.
For CN(C)C(=O)[C@@H]1[C@@H](CO)[C@@H]2Cn3c(ccc(-c4ccncc4)c3=O)[C@H]1N2CC1CC1 the results were C2C12 statin 6, E-sel inducer 0, PglD DTNB -2 and esBAF inh 2.
`O=c1c(-c2nc3ccccc3s2)cccn1Cc1ccc(Cl)cc1` gave Yeast UUG start -9, C2C12 statin 13, PglD DTNB 2, PGC1a acetyl inh -13, esBAF inh 67*, Ring1 derepress 1, esBAF Fgf4 qPCR 0.98, Bmi1 derepress 1.4, A549 cytotox -10, HepG2 tox SP 3 and HEK293 cytotox SP -16.
`Clc1ccc(CCNc2nc3ccccc3s2)cc1` gave Yeast UUG start -18 and PglD DTNB -2.

Ordered by SMILES length (low to high): 3 of the compounds above
`Fc1cccc(-c2ncc(-c3ccccc3)o2)c1` gave Yeast UUG start -12, C2C12 statin -3, PglD DTNB 1, esBAF inh 73*, Ring1 derepress 1.2, esBAF Fgf4 qPCR 0.99, Bmi1 derepress 1.7, A549 cytotox -6, HepG2 tox SP 2 and HEK293 cytotox SP -17.
`COc1ccc2c(=O)c(-c3ccc(OC)c(OC)c3)coc2c1` gave Yeast UUG start -21, C2C12 statin 3, PglD DTNB -1, PGC1a acetyl inh 2, esBAF inh 58*, Ring1 derepress 1, esBAF Fgf4 qPCR 0.89, Bmi1 derepress 1.5, A549 cytotox -4, HepG2 tox SP -60* and HEK293 cytotox SP -14.
`C[C@H]1CN([C@@H](C)CO)C(=O)c2cc(NS(=O)(=O)c3ccc(Cl)cc3)ccc2O[C@H]1CN(C)C` gave Yeast UUG start 6, C2C12 statin 1, PglD DTNB -6, PGC1a acetyl inh -2 and esBAF inh -7.

Screens as filed in PubChem BioAssay.
